From ChEMBL document CHEMBL1133182, “Biosensor analysis of the interaction between immobilized human serum albumin and drug compounds for prediction of human serum albumin binding levels” (J Med Chem, 2000)

Amino acid sequences for entries named in this document (tags omitted).
UniProt P02768, whole entry: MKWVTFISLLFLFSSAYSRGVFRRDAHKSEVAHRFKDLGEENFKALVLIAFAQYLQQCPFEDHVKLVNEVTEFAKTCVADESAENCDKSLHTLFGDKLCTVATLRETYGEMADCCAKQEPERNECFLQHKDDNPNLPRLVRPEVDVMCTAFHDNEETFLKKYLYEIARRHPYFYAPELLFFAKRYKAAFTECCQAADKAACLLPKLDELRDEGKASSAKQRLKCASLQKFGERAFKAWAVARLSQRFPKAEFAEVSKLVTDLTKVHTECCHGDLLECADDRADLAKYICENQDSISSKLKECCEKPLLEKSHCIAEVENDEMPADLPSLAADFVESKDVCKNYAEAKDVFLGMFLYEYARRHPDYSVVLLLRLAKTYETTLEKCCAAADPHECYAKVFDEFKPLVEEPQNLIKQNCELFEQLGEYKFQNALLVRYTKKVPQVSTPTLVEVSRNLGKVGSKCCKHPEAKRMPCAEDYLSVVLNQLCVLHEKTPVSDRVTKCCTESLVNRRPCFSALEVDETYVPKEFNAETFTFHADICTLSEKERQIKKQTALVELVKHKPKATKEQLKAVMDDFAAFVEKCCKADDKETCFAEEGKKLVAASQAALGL

Target: Albumin (Homo sapiens, UniProt P02768)
Assay: The ability concentration.)

Binding: 63.4%
Compound: O=C1NC(=O)C(c2ccccc2)(c2ccccc2)N1 [PHENYTOIN]
